Only a part of the results on these compounds is given; other tests are left out.
Columns and labels:
guinea pig penis = test: Topical application of nitrates to the penis of guinea pigs (change in penile volume); format: in vivo, male outbred Hartley guinea pigs; settings: for Time of Peak Effect / AUC / Peak Effect (% change) / AUC, % of 1,5-PDN / Peak Effect, % of 1,5-PDN: neat; for AUC / Peak Effect (% change): guinea pig penile volume; for AUC, % of 1,5-PDN / Peak Effect, % of 1,5-PDN: relative to 1,5-PDN
[1] = Elimination, tissue distribution and absorption of ^14 C-1,5-PDN after IV, oral or dermal dosing in rats; settings: rat, 5 mg/kg
[2] = Blood levels of 1,5-PDN and total radioactivity after oral or subcutaneous ^14 C-1,5-PDN in rats; settings: 5 mg/kg
rat aortic rings = test: Vascular reactivity: relaxation of rat aortic rings precontracted with phenylephrine
[3] = Intravenous injection of NTG vs. 1,5-pentane dinitrate in conscious rats (mean arterial blood pressure)
[4] = IV, oral or dermal, up to 168 hours

Structure (SMILES)	Time of Peak Effect (guinea pig penis) [min]	AUC (guinea pig penis)	Peak Effect (% change) (guinea pig penis)	AUC, % of 1,5-PDN (guinea pig penis) [%]	Peak Effect, % of 1,5-PDN (guinea pig penis) [%]	tissue levels of radioactivity ([1]; 168 hours post-dose)	dosed radioactivity eliminated as ^14 CO2 [1, 4]	dosed radioactivity eliminated in the feces [1, 4]	dosed radioactivity eliminated in the urine [1, 4] [%]	absorption, oral and dermal routes [1]	handling in males and females [1]	metabolism in vivo [1]	level of 1,5-PDN in blood as % of total radioactivity levels ([2]; oral dosing, corn oil, rat)	level of 1,5-PDN in blood as % of total radioactivity levels ([2]; subcutaneous dosing, PEG 400, rat) [%]	vascular relaxation, potency or efficacy: 1,5-PDN vs 1,5-pentane dinitrite (rat aortic rings; FIG. 10, rat aortic rings)	vascular relaxation: NTG vs 1,5-PDN (rat aortic rings; FIG. 11, rat aortic strips)	decrease in arterial pressure ([3]; 30 μg) [%]	average decrease in blood pressure ([3]; higher doses (up to 2000 μg))	effect on penile volume (guinea pig penis; FIGS. 1-3, 1,5-PDN vs saline, 10% NTG solution vs 1,5-PDN, listed as 1,5-pentane dinitrate)
O=[N+]([O-])OCCCCO[N+](=O)[O-]	2	403	35.5	91	92														
O=[N+]([O-])OCCCCCO[N+](=O)[O-]	5	442	38.7	100	100	0.1-1 ppm	approximately 60%	approximately 5%	30	well absorbed through both oral and dermal routes	handled in a similar manner by both males and females	rapidly and extensively metabolized in vivo, largely to CO2	less than 0.1%	3.4	no difference in vascular relaxation, either in potency or efficacy	no appreciable difference in the vascular relaxation	8	12-14%	significantly more effective than the saline control in increasing penile volume
O=[N+]([O-])OC1CCC(O[N+](=O)[O-])CC1 (stereo not drawn)	2	225	27.9																

Reference: US6056966A, “Method and compositions for treating impotence” (Baker Norton Pharmaceuticals, Inc., priority 1998, dated 2000)
